According to patent US10039752B2, “Methazolamide for the treatment of cancer” (Cipla Limited, priority 2016, dated 2018):

Test system: twelve selected human pancreatic cancer cell lines
Conditions: 2-D, HUP-T3 vs HPAC
Text: PAXF 546L, PAXF 1986L, PAXF 1998L, PAXF 2005L and PAXF 2059L were established at Oncotest from the corresponding human patient derived xenograft. CAPAN-2, HUP-T3 and PA-TU-8902 were purchased from DSMZ (Braunschweig, Germany). PANC-1 was purchased from CLS Cell Line Services GmbH (Eppelheim, Germany). BxPC-3, HPAC and MIA-Pa-Ca-2 were purchased from ATCC (Rockville, Md., USA). Authenticity of cell lines was confirmed at the DSMZ by STR (short tandem repeat) analysis, a PCR based DNA-fingerprinting methodology. Cell lines were routinely passaged once or twice weekly and maintained in culture for up to 20 passages. All cells were grown at 37° C. in a humidified atmosphere with 5% CO2 in RPMI 1640 medium (25 mM HEPES, with L-glutamine, #FG1385, Biochrom, Berlin, Germany) supplemented with 10% (v/v) fetal calf serum (Sigma, Taufkirchen, Germany) and 0.1 mg/mL gentamicin (Life Technologies, Karlsruhe, Germany).
The CellTiter-Blue® Cell Viability Assay (#G8081, Promega) was used according to manufacturer's instructions. Briefly, cells were harvested from exponential phase cultures, counted and plated in 96-well flat-bottom microtiter plates at a cell density of 6,000-20,000 cells/well depending on the cell line's growth rate. […] Following an incubation period of up to four hours, fluorescence (FU) was measured by using the Enspire Multimode Plate Reader (excitation λ=531 nm, emission λ=615 nm). […]

CC(=O)N=c1sc(S(N)(=O)=O)nn1C [Methazolamide, N-[5-(aminosulfonyl)-3-methyl-1,3,4-thiadiazol-2(3H)-ylidene]acetamide]
difference between the most sensitive and most resistant cell line: 7.4 fold
